In this assay the target is Neutrophil collagenase (Homo sapiens, UniProt P22894).

By UniProt entry, the sequences of proteins in these tests, tags left out. Where a name states a change or a piece, a line headed by the entry shows the natural chain unless it says otherwise.
UniProt P22894: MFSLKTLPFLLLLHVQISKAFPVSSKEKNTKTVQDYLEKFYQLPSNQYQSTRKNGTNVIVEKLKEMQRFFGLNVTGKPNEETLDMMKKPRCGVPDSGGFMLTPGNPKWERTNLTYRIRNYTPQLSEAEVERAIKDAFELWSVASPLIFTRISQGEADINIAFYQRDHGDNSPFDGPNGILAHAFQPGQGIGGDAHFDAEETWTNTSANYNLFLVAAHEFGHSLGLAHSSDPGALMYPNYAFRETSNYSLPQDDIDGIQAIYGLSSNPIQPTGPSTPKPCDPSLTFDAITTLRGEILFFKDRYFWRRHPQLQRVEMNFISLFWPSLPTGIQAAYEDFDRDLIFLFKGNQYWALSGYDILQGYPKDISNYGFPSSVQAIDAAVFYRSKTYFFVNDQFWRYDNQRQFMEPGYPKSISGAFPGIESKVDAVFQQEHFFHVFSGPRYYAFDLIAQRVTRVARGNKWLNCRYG

`CC(C)C[C@H](CC(=O)NO)C(=O)N[C@@H](Cc1c[nH]c2ccccc12)C(=O)N[C@H]1c2ccccc2C[C@H]1O` displayed an inhibition constant (Ki) of 73 nM. Molecule `CC(C)C[C@H](CC(=O)NO)C(=O)N[C@@H](Cc1c[nH]c2ccccc12)C(=O)N[C@@H]1c2ccccc2C[C@@H]1O` showed a Ki of 6.2 nM.

The term Ki denotes the equilibrium dissociation constant of an inhibitor or competing ligand from its target.

For the origin of these results see ChEMBL document CHEMBL1131112, “Matrix metalloproteinase inhibitors: a structure-activity study” (J Med Chem, 1998).
